The source of these data is PubChem BioAssay AID540253 (National Center for Advancing Translational Sciences (NCATS), 2011).

This is a selection; strong and weak results do not stand in their true shares. Records with an inconclusive call do not appear. Some salts or complexes appear as unconnected parts, following the source record. The source made the active and inactive calls. Calls follow the shape of the full dose curve.

For the test, the target named is Snurportin-1 (Homo sapiens) + GTP-binding nuclear protein Ran (Homo sapiens) + Importin subunit beta-1 (Homo sapiens) (UniProt O95149+P62826+Q14974). Description: qHTS Assay for Inhibitors of RanGTP induced Rango (Ran-regulated importin-beta cargo) - Importin beta complex dissociation. Also: % of control where 0% means no effect; nearly all actives have a fitted effect of over 45% in size. As to conditions: Biochemical FRET Rango-importin beta; at 46.1 µM (top of the series). A general note: In qHTS, concentration-response curves come from the screen itself.
On to `CCOC(=O)C(CC)C1=NC(C)(C)Cc2ccccc21.O=[N+]([O-])c1cc([N+](=O)[O-])c(O)c([N+](=O)[O-])c1` (stereo not given), for which the activity change, negative = inhibition was inactive: 17.1%.

On to `N#Cc1ccc(C(=O)NCC2(N3CCCCC3)CCCCC2)cc1`, for which the activity change, negative = inhibition was inactive: 4.66%.

`CC(C)(C)OC(=O)N1CCC(N(C(=O)c2ccccc2)c2ccc(Cl)cc2)CC1`: the activity change, negative = inhibition was inactive: -12.9%.

With `CN(C)C1(CNC(=O)c2cccc(C#N)c2)CCCCC1`, the activity change, negative = inhibition is inactive: -6.07%.

In the case of `c1ccc(CN2CCC(Nc3ccccc3)CC2)cc1`, the activity change, negative = inhibition is inactive: 0.794%.

As to `Cc1cc(N(CCCl)CCCl)ccc1C=O`, the activity change, negative = inhibition was inactive: -1.3%.

`CCCN1CCC(Nc2cc(OC)cc(OC)c2)CC1`: the activity change, negative = inhibition is inactive: 0.676%.

Turning to `COc1cc(C(=O)NCC2(N3CCOCC3)CCCCC2)cc(OC)c1C`, the activity change, negative = inhibition was inactive: -8.82%.

With `O=C(NCC1(N2CCOCC2)CCCCC1)c1cc(Br)ccc1Cl`, the activity change, negative = inhibition is inactive: -2.98%.

On to `CCc1cc(C(=O)NCC2(N3CCCCC3)CCCCC2)sc1C`, for which the activity change, negative = inhibition was inactive: -1.79%.

`O=C(OC1CN2CCC1CC2)C1c2ccccc2C=Cc2ccccc21` (stereo not given): the activity change, negative = inhibition is inactive: -4.04%.

Turning to `O=C(O)c1cccc(Nc2c([N+](=O)[O-])cc([N+](=O)[O-])cc2[N+](=O)[O-])c1`, the activity change, negative = inhibition is inactive: -7.85%.

Turning to `CCOC(=O)N1CCC(Nc2ccc(C)cc2)CC1`, the activity change, negative = inhibition is inactive: 2.67%.

Consider `N/C(=N\O)c1c(N)no[n+]1[O-]`, for which the activity change, negative = inhibition was inactive: -2.77%.

For `CC(C)(C)OC(=O)N1CCC(Nc2ccccc2)CC1`, the activity change, negative = inhibition was inactive: -4.42%.

`O=C(O)C1(Nc2ccccc2)CCN(Cc2ccccc2)CC1`: the activity change, negative = inhibition is inactive: 5.01%.

With `CCCOc1ccc(C(=O)NCC2(N(C)C)CCCCC2)cc1`, the activity change, negative = inhibition was inactive: -9.8%.

In the case of `CCOc1ncccc1C(=O)NCC1(N2CCOCC2)CCCCC1`, the activity change, negative = inhibition was inactive: -5.86%.

Take `CN1CCC(Nc2ccc(F)c(Cl)c2)CC1`: the activity change, negative = inhibition is inactive: 10.7%.

As for `CN1CCC(Nc2ccc(Cl)cc2)CC1`, the activity change, negative = inhibition was inactive: -14.7%.

In the case of `COc1cc(OC)cc(C(=O)NCC2(N3CCOCC3)CCCCC2)c1`, the activity change, negative = inhibition is inactive: -18.3%.

With `COc1cccc(C(=O)N(c2cc(C)cc(C)c2)C2CCN(C(=O)OC(C)(C)C)CC2)c1`, the activity change, negative = inhibition was inactive: 33.8%.

Consider `CCC(CO)(C(=O)OC1CN2CCC1CC2)c1ccccc1` (stereo not given), for which the activity change, negative = inhibition is inactive: 2.03%.

`Cc1ccc(C(=O)NCC2(N3CCCCC3)CCCCC2)o1`: the activity change, negative = inhibition was inactive: -3.56%.

Consider `Fc1ccccc1NC1CCN(Cc2ccccc2)CC1`, for which the activity change, negative = inhibition is inactive: 7.84%.

Take `Cc1ccc(NC2(C#N)CCN(Cc3ccccc3)CC2)cc1`: the activity change, negative = inhibition is inactive: 7.64%.

Consider `CC(=O)N(c1ccccc1)C1CCNCC1`, for which the activity change, negative = inhibition is inactive: 20.4%.

In the case of `COc1cc(OC)cc(C(=O)NCC2(N3CCCCC3)CCCCC2)c1`, the activity change, negative = inhibition was inactive: 25.8%.

For the compound `O=C(NCC1(N2CCCCC2)CCCCC1)c1ccco1`, the activity change, negative = inhibition was inactive: 0.927%.

`CN(C)c1ccc(C(=O)NCC2(N3CCCCC3)CCCCC2)cc1`: the activity change, negative = inhibition was inactive: 0.211%.

Regarding `Cn1c(=O)[nH]cc(N(CCCl)CCCl)c1=O`, the activity change, negative = inhibition is inactive: 0.0508%.

For the compound `Cc1ccccc1NC1(C#N)CCN(Cc2ccccc2)CC1`, the activity change, negative = inhibition was inactive: 2.99%.

For `CCN1CCC(Nc2cccc(F)c2)CC1`, the activity change, negative = inhibition is inactive: -15.7%.

For the compound `O=P1(N(CCCl)CCCl)SCCCS1`, the activity change, negative = inhibition is inactive: -9.16%.

As for `CCCCOc1ccc(C(=O)NCC2(N3CCOCC3)CCCCC2)cc1`, the activity change, negative = inhibition is inactive: 11.3%.

For the compound `O=C(NCC1(N2CCCCC2)CCCCC1)c1ccc(F)cc1`, the activity change, negative = inhibition was inactive: 10.2%.

For `COc1ccc(NC2CCN(CCc3ccccc3)CC2)c(OC)c1`, the activity change, negative = inhibition was inactive: -5.11%.

On to `CCOC(=O)N1CCC(Nc2ccc(F)cc2)CC1`, for which the activity change, negative = inhibition is inactive: 10.1%.

As to `O=C1CCN(Cc2ccccc2)CC1`, the activity change, negative = inhibition was inactive: -6.45%.

Consider `CCOc1ccc(C)cc1CN(CCCl)CCCl`, for which the activity change, negative = inhibition is inactive: 1.41%.

Turning to `CCOC(=O)N1CCC(Nc2cccc(C)c2)CC1`, the activity change, negative = inhibition was inactive: -15.5%.

On to `COc1cc(C(=O)NCC2(N(C)C)CCCCC2)ccc1OC(F)F`, for which the activity change, negative = inhibition is inactive: 0.795%.

Regarding `CSc1ccccc1C(=O)NCC1(N2CCCCC2)CCCCC1`, the activity change, negative = inhibition was inactive: 0.622%.

As for `Cc1cccc(NC2(C#N)CCN(Cc3ccccc3)CC2)c1`, the activity change, negative = inhibition is inactive: 0.785%.

Regarding `COc1ccc(C(=O)NCC2(N3CCCCC3)CCCCC2)cc1`, the activity change, negative = inhibition was inactive: -0.194%.

As for `CC(C)(C)OC(=O)N1CCC(N(C(=O)c2ccccc2)c2ccc(F)cc2)CC1`, the activity change, negative = inhibition was inactive: -0.36%.

Consider `COc1ccc(C(=O)NCC2(N3CCCCC3)CCCCC2)c(OC)c1OC`, for which the activity change, negative = inhibition was inactive: 12.8%.

`O=C(NCC1(N2CCCCC2)CCCCC1)c1ccc(=O)[nH]c1`: the activity change, negative = inhibition was inactive: 1.24%.

Turning to `O=C(NCC1(N2CCCCC2)CCCCC1)c1cccs1`, the activity change, negative = inhibition was inactive: -19.7%.

As for `O=C(NCC1(N2CCCCC2)CCCCC1)c1ccc(Cl)s1`, the activity change, negative = inhibition is inactive: -3.17%.

As for `N#CC1(Nc2ccccc2)CCN(Cc2ccccc2)CC1`, the activity change, negative = inhibition was inactive: 7.38%.

As to `O=C(OC1CN2CCC1CC2)C1c2ccccc2Oc2ccccc21` (stereo not given), the activity change, negative = inhibition is inactive: 2.17%.

Regarding `COc1ccc(Cl)cc1C(=O)NCC1(N2CCOCC2)CCCCC1`, the activity change, negative = inhibition is inactive: 5.54%.

Turning to `O=C1C(O)=C([N+](=O)[O-])C(=O)C(O)=C1[N+](=O)[O-]`, the activity change, negative = inhibition is inactive: -7.51%.

Take `CCOC(=O)N1CCC(Nc2ccc(OC)cc2)CC1`: the activity change, negative = inhibition was inactive: 5.76%.

In the case of `O=C(NCC1(N2CCCCC2)CCCCC1)c1ccc(Cl)nc1`, the activity change, negative = inhibition is inactive: -7.27%.

In the case of `Cc1cc(C)cc(N(C(=O)c2ccccc2)C2CCN(C(=O)OC(C)(C)C)CC2)c1`, the activity change, negative = inhibition was inactive: -11.2%.

On to `O=C(NCC1(N2CCOCC2)CCCCC1)c1cc2ccccc2o1`, for which the activity change, negative = inhibition is inactive: -6.89%.

For `COc1cc(OC)c(C(=O)NCC2(N(C)C)CCCCC2)cc1OC`, the activity change, negative = inhibition is inactive: 8.52%.

`O=C(NCC1(N2CCOCC2)CCCCC1)c1cc(F)c(F)cc1Cl`: the activity change, negative = inhibition is inactive: -0.598%.

For the compound `CC(C)c1ccc(NC2CCN(C(=O)OC(C)(C)C)CC2)cc1`, the activity change, negative = inhibition is inactive: 9.66%.

In the case of `COc1ccc(CN(CCCl)CCCl)cc1Cl`, the activity change, negative = inhibition is inactive: 1.39%.

With `O=[N+]([O-])c1cc([N+](=O)[O-])c(OC2CCCCC2O)c([N+](=O)[O-])c1` (stereo not given), the activity change, negative = inhibition is inactive: 11.8%.

For `CN(C)c1cccc(C(=O)NCC2(N3CCCCC3)CCCCC2)c1`, the activity change, negative = inhibition is inactive: 19.6%.

`CCCOc1ccc(C(=O)NCC2(N(C)C)CCCCC2)cc1OC`: the activity change, negative = inhibition was inactive: -4.47%.

Take `O=C(OC1CN2CCC1CC2)c1ccc([N+](=O)[O-])cc1` (stereo not given): the activity change, negative = inhibition is inactive: -13.1%.

Regarding `CN1CCC(Nc2cccc(F)c2)CC1`, the activity change, negative = inhibition was inactive: -1.49%.

`COc1ccc2c(c1O)-c1c(O)c(OC)cc3c1[C@H](C2)[N+](C)(C)CC3.O=[N+]([O-])c1cc([N+](=O)[O-])c([O-])c([N+](=O)[O-])c1[O-]`: the activity change, negative = inhibition is inactive: 0.331%.

Take `O=C(NCC1(N2CCCCC2)CCCCC1)c1cncc(Br)c1`: the activity change, negative = inhibition was inactive: -9.26%.

Regarding `CCN1CCC(Nc2ccc(Cl)cc2)CC1`, the activity change, negative = inhibition was inactive: 13.2%.

Turning to `O=C(NCC1(N2CCCCC2)CCCCC1)c1cccc([N+](=O)[O-])c1`, the activity change, negative = inhibition is inactive: 15.3%.

Regarding `CSc1ccc(C(=O)NCC2(N3CCOCC3)CCCCC2)cc1`, the activity change, negative = inhibition is inactive: -7.38%.

`O=C(NCC1(N2CCCCC2)CCCCC1)c1ccc(OC(F)F)cc1`: the activity change, negative = inhibition is inactive: 0.654%.

On to `COc1cc(C(=O)NCC2(N3CCCCC3)CCCCC2)ccc1OC(F)F`, for which the activity change, negative = inhibition is inactive: -0.731%.

With `O=C(NCC1(N2CCOCC2)CCCCC1)c1cc(=O)[nH]c2ccccc12`, the activity change, negative = inhibition is inactive: 9.77%.

With `CN1CCN(CCOC(=O)C(O)(c2ccccc2)c2ccccc2)CC1`, the activity change, negative = inhibition is inactive: 0.86%.

In the case of `CC(C)c1ccc(C(=O)NCC2(N3CCOCC3)CCCCC2)cc1`, the activity change, negative = inhibition is inactive: 0.74%.

Turning to `COc1ccc(NC2CCN(C(=O)OC(C)(C)C)CC2)cc1`, the activity change, negative = inhibition is inactive: 9.28%.

For `O=[N+]([O-])c1cc([N+](=O)[O-])c(NCC2CCS(=O)(=O)C2)c([N+](=O)[O-])c1` (stereo not given), the activity change, negative = inhibition was inactive: -6.12%.

As for `O=C(NCC1(N2CCCCC2)CCCCC1)c1cccc(C(F)(F)F)c1`, the activity change, negative = inhibition is inactive: 7.98%.
